Values of other authors as cited in PMC4579270, “Identification and Characterization of an Irreversible Inhibitor of CDK2” (Chemistry & Biology, 2015).

Biological target: CDK2
Conditions: ref Davies et al., 2002; cited from earlier work

With `NS(=O)(=O)c1ccc(Nc2nc(OCC3CCCCC3)c3nc[nH]c3n2)cc1` [NU6102, 4-((6-(Cyclohexylmethoxy)-9H-purin-2-yl)amino)benzenesulfonamide] as the compound, how does the Ki read?
The Ki was 6 nM.
